In publication PMC11053023 (2024):

Target: FEM1B-EB-EC ternary complex (human, UniProt Q9UK73 1-627; Q15370 1-118; Q15369 17-112)
Test: ITC

Kd	Binder
6.8 µM	GGGSGGGSHSLRAVSTDPPHHDHHDEFCLMP [BEX2 C-degron (C-term 23-mer), SUMO fusion]
1.9 µM	GGGSGGGSLKTFKPIDLSDLKRRSTQDAKKS [MCRIP1 C-degron (C-term 23-mer), SUMO fusion]
